This is a selection; strong and weak results do not stand in their true shares. The source made the active and inactive calls. Calls follow the shape of the dose curve; as a rule, active = well fitted activation curve with a large enough effect; inconclusive = small, poorly fitted or top-dose-only effect; inactive = no such curve, though single readings can be large or run the other way.

A short description of the experiment: qHTS for compounds that reverse cellular toxicity of Amyloid beta (A-beta) peptide in yeast: Primary Screen. Also: nearly all actives have a fitted effect of over 55% in size. To be noted: yeast expressing A-beta42, growth rescue, OD600, 48 h, 0% DMSO, 100% iron-clioquinol control; at 46.1 µM (top of the series). The source says:
The A-beta peptide is produced by the processing of the amyloid precursor protein (APP) by two proteases, beta and gamma secretases. […] A-beta42 is regarded as the most amyloidogenic form due to its hydrophobicity; however, precisely how A-beta42 induces neurotoxicity is unclear. To understand further this biology and its potential therapeutic implications for human neurodegenerative disease, a quantitative high-throughput screen for compounds that reverse the cellular toxicity of the A-beta peptide was developed. A yeast based screen was used because it recapitulates the salient feature of protein mis-folding disorder accurately. This cell-based phenotypic screen provides a significant, unbiased advantage by letting the compounds and models inform us which proteins or pathways are most relevant. The ideal chemical candidates would therefore have activity in both our primary yeast and secondary neuronal toxicity assays, as well as in mouse models. […] For this luminescence assay, inhibition of A-beta rescues the toxic effect in the yeast cell, resulting in increase of signals and the desired phenotype of "Activator". […]
Two and a half microliter / well of yeast growth medium were dispensed in a 1536 assay plate. […] After 48 hr, the absorbance signal at 600 nm was obtained using the PerkinElmer ViewLux plate reader to assess yeast growth. […]
On the technique in general: In qHTS, concentration-response curves come from the screen itself.
Regarding `CCC(=O)N(c1ccccc1)C1(COC)CCN(CCn2nnn(CC)c2=O)CC1`, the growth rescue was inactive: -22.8%.
Consider `CCC(=O)N(c1ccccc1)C1(COC)CCN(CCc2cccs2)CC1`, for which the growth rescue is inactive: 1.75%.
